Each structure is given as a SMILES string. pIC50: −log10 of the molar value. Where two headings read alike, the source gives them in different places. Some results are limits rather than exact numbers.

The chains behind the UniProt entries cited, without tags or fusion partners.
UniProt P49840, whole entry: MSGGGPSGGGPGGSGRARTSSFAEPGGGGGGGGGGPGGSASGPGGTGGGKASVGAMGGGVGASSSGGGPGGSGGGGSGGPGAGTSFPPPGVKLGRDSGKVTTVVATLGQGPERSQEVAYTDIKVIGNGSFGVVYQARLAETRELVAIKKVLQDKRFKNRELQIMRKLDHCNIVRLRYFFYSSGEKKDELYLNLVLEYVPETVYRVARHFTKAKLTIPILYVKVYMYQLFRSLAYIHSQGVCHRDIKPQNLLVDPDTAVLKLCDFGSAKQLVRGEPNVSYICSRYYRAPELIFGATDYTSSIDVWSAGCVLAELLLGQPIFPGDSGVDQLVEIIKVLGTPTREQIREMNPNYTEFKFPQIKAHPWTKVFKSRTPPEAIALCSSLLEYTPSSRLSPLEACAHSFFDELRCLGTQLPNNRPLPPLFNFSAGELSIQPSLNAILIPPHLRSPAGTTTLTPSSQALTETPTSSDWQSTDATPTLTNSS
UniProt P49841, whole entry: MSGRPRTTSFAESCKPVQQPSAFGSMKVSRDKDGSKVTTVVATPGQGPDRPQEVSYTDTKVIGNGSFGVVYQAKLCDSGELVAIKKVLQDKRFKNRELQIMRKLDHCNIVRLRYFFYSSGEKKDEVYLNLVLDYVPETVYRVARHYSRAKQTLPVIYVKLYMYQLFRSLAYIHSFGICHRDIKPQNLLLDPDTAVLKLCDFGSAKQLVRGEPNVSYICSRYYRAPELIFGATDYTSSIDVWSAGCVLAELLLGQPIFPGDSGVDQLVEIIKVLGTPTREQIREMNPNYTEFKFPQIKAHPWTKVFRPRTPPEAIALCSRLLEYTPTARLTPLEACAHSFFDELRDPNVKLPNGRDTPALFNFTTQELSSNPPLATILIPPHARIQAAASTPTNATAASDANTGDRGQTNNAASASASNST

Assay [1] addresses GSK3α (GST-full length GSK3α) (Homo sapiens (Human), UniProt P49840). As to the kind of experiment: GSK3α TR-FRET kinase assay. The class given is biochemical. A general note: TR-FRET usually uses a lanthanide donor and a delayed reading to cut background.
The target in assay [2] is GSK3b (GST-full length GSK3b) (Homo sapiens (Human), UniProt P49841). As to the kind of experiment: GSK3b TR-FRET kinase assay. The assay is classed as biochemical.
Where [3] appears, read: read-out: GSK3-A TR-FRET BIOCHEMICAL (TR-FRET), GMean, IC50, 1 nM GSK3α, 4 μM ATP, 30 minute preincubation, geometric mean.
Where [4] appears, read: read-out: GSK3-B TR-FRET BIOCHEMICAL (TR-FRET), GMean, IC50, 1 nM GSK3b, 2 μM ATP, 30 minute preincubation, geometric mean.
[5] abbreviates: read-out: GSK3-A TR-FRET BIOCHEMICAL (TR-FRET);, 1 nM GSK3α, 4 μM ATP, 30 minute preincubation, Table 16.
Where [6] appears, read: read-out: GSK3-B TR-FRET BIOCHEMICAL (TR-FRET);, 1 nM GSK3b, 2 μM ATP, 30 minute preincubation, Table 16.
The mark [7] stands for this setting: read-out: GSK3-A TR-FRET BIOCHEMICAL (TR-FRET), IC50, 1 nM GSK3α, 4 μM ATP, 30 minute preincubation (Table 16).
Setting [8] is: read-out: GSK3-B TR-FRET BIOCHEMICAL (TR-FRET), IC50, 1 nM GSK3b, 2 μM ATP, 30 minute preincubation (Table 16).
Where [9] appears, read: read-out: GSK3-A (TR-FRET 1 mM ATP), GMean, IC50, 1 mM ATP, geometric mean.
The mark [10] stands for this setting: read-out: GSK3-B (TR-FRET 1 mM ATP), GMean, IC50, 1 mM ATP, geometric mean.
Where [11] appears, read: read-out: GSK3-A TR-FRET BIOCHEMICAL (TR-FRET), IC50, 1 nM GSK3α, 4 μM ATP, 30 minute preincubation.
[12] abbreviates: read-out: GSK3-B TR-FRET BIOCHEMICAL (TR-FRET), IC50, 1 nM GSK3b, 2 μM ATP, 30 minute preincubation.

With `CC[C@@]1(c2cccc(-c3c(Cl)cncc3Cl)c2)C2=C(CC(C)(C)NC2=O)Nc2n[nH]cc21`, the pIC50 in assay [1] (setting [3]) was 5.30 to 6.00; in assay [2] (setting [4]) it was < 5.30.

Turning to `COc1ccc(S(=O)(=O)N2CCC[C@@]3(CC2)C2=C(CC(C)(C)CC2=O)Nc2n[nH]cc23)cc1`, the pIC50 in assay [1] (setting [5]) was > 7.00; in assay [2] (setting [6]), 6.00 to 7.00.

Take `CC1(C)CC(=O)C2=C(C1)Nc1n[nH]cc1[C@@]21CCCN(S(=O)(=O)Cc2ccccc2)CC1`: the pIC50 was > 7.00 in assay [1] (setting [5]) and 6.00 to 7.00 in assay [2] (setting [6]).

`CCC1(c2cccc(N3CCCC3)c2)C2=C(CC(C)(C)NC2=O)Nc2n[nH]c(C)c21` (stereo not shown): the pIC50 in assay [1] (setting [3]) is > 7.00; in assay [2] (setting [4]), 6.00 to 7.00.

Turning to `CC[C@]1(c2cccc(-c3ccncc3CO)c2)C2=C(CC(C)(C)CC2=O)Nc2n[nH]cc21`, the pIC50 in assay [1] (setting [5]) was 6.00 to 7.00; in assay [2] (setting [6]), 5.30 to 6.00.

For `CC[C@]1(c2cccc(-c3ccnc4ccc(OC)cc34)c2)C2=C(CC(C)(C)NC2=O)Nc2n[nH]cc21`, the pIC50 in assay [1] (setting [3]) and in assay [2] (setting [4]) was > 7.00 throughout.

As for `CCC1(c2cccc(-c3cc(C)ncc3C)c2)C2=C(CC(C)(C)CC2=O)Nc2n[nH]c(C(F)(F)F)c21` (stereo not shown) [Compound 947363], the pIC50 in assay [1] (setting [5]) and in assay [2] (setting [6]) was > 7.00 throughout.

With `CC[C@@]1(c2cccc(N3CCCC[C@H]3C)c2)C2=C(CC(C)(C)CC2=O)Nc2n[nH]cc21`, the pIC50 in assay [1] (setting [7]) is > 7.00; in assay [2] (setting [8]) it was 6.00 to 7.00.

As for `CC[C@]1(c2cccc(-c3ccncc3C3CC3)c2)C2=C(CC(C)(C)NC2=O)Nc2n[nH]cc21`, the pIC50 in assay [1] (setting [9]) is 6.00 to 7.00; in assay [1] (setting [7]), > 7.00; in assay [2] (setting [10]), 5.30 to 6.00; in assay [2] (setting [8]), > 7.00.

For the compound `CCC1(c2cccc(C)c2)C2=C(CC3(CCCC3)CC2=O)Nc2n[nH]cc21` (stereo not shown), the pIC50 in assay [1] (setting [3]) is > 7.00; in assay [2] (setting [4]), 6.00 to 7.00.

In the case of `CC[C@]1(c2cccc(-c3ccnc(C)c3)c2)C2=C(CC(C)(C)[C@@H](F)C2=O)Nc2n[nH]cc21`, the pIC50 is 6.00 to 7.00 in assay [1] (setting [9]), > 7.00 in assay [1] (setting [5]), < 5.30 in assay [2] (setting [10]) and 6.00 to 7.00 in assay [2] (setting [6]).

For `CC[C@@]1(c2cccc(-c3cn(C)nc3C)c2)C2=C(CC(C)(C)NC2=O)Nc2n[nH]c(C)c21`, the pIC50 in assay [1] (setting [9]) was > 7.00; in assay [1] (setting [11]) it was > 7.00; in assay [2] (setting [10]), 6.00 to 7.00; in assay [2] (setting [12]) it was > 7.00.

Take `CC[C@@H]1CCN1c1cccc([C@]2(CC)C3=C(CC(C)(C)CC3=O)Nc3n[nH]cc32)c1`: the pIC50 in assay [1] (setting [7]) was > 7.00; in assay [2] (setting [8]), 6.00 to 7.00.

Consider `CCC1(c2cccc(N(C)c3ccnn3C)c2)C2=C(CC(C)(C)CC2=O)Nc2n[nH]cc21` (stereo not shown), for which the pIC50 is 6.00 to 7.00 in assay [1] (setting [7]) and 5.30 to 6.00 in assay [2] (setting [8]).

On to `CC[C@@]1(c2cccc(OC)c2)C2=C(CC(C)(C)CC2=O)Nc2n[nH]c(C(F)(F)F)c21` (single isomer, unassigned), for which the pIC50 in assay [1] (setting [9]) was > 7.00; in assay [1] (setting [7]) it was > 7.00; in assay [2] (setting [10]), 6.00 to 7.00; in assay [2] (setting [8]), > 7.00.

Turning to `CCC1(c2cccc(-c3ccncc3F)c2)C2=C(CC(C)(C)NC2=O)Nc2n[nH]c(C)c21` (stereo not shown), the pIC50 in assay [1] (setting [11]) and in assay [2] (setting [12]) was > 7.00 each time.

Turning to `CCC1(c2cccc(C(F)(F)F)c2)C2=C(CC(C)(C)CC2=O)Nc2n[nH]c(C)c21` (stereo not shown), the pIC50 in assay [1] (setting [3]) and in assay [2] (setting [4]) was > 7.00 each time.

Consider `CC(C)(C)Cc1[nH]nc2c1[C@@]1(COc3ccccc31)C1=C(CC(C)(C)CC1=O)N2`, for which the pIC50 in assay [1] (setting [9]) and in assay [2] (setting [10]) was < 5.30 each time.

Take `CC[C@@]1(c2cccc(-c3cn(C)nc3C)c2)C2=C(CC3(CCC3)NC2=O)Nc2n[nH]cc21`: the pIC50 was > 7.00 in assay [1] (setting [9]), > 7.00 in assay [1] (setting [7]), 6.00 to 7.00 in assay [2] (setting [10]) and > 7.00 in assay [2] (setting [8]).

In the case of `CCC1(c2cccc(C(F)(F)F)c2)C2=C(CN(c3ccccc3)C2=O)Nc2n[nH]cc21` (stereo not shown) [Compound 945377], the results for the pIC50 in assay [1] (setting [5]) and in assay [2] (setting [6]) were 6.00 to 7.00 and 5.30 to 6.00, respectively.

With `CC(C)(C)Cc1[nH]nc2c1[C@@]1(CCCc3ccccc31)C1=C(CC(C)(C)CC1=O)N2`, the figures for the pIC50 in assay [1] (setting [3]) and in assay [2] (setting [4]) were 6.00 to 7.00 and > 7.00, respectively.

Turning to `CC[C@]1(c2cccc(-c3cc(C)nnc3C)c2)C2=C(CC(C)(C)NC2=O)Nc2n[nH]cc21`, the pIC50 in assay [1] (setting [9]) was 6.00 to 7.00; in assay [1] (setting [7]) it was > 7.00; in assay [2] (setting [10]) it was 5.30 to 6.00; in assay [2] (setting [8]) it was 6.00 to 7.00.

Regarding `CCC1(c2cccc(S(C)(=O)=O)c2)C2=C(CC(C)(C)NC2=O)Nc2n[nH]cc21` (stereo not shown), the pIC50 in assay [1] (setting [11]) and in assay [2] (setting [12]) was > 7.00 in each case.

The record behind these values is patent US20250313563A1, “GLYCOGEN SYNTHASE KINASE 3 INHIBITORS AND USES THEREOF” (The Broad Institute, Inc., priority 2022, published 2025).
